Assay outcomes as filed in PubChem BioAssay.
DT40 TDP1 no CPT: qHTS for Inhibitors of human tyrosyl-DNA phosphodiesterase 1 (TDP1): qHTS in cells in absence of CPT; DT40 Tdp1-/- hTDP1 cells, no CPT, ATP luminescence, 48 h; Potency, µM (top dose mostly 46.2 µM), without a hit: at the top dose activity change, negative = growth inhibition, usual class: inhibitors; 420,000 compounds, 15% hits; note: potency is the fitted concentration of half-maximal effect; % is set by controls: 0 for no effect and ±100 for the full control effect; nearly all actives have a fitted effect of over 55% in size
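Readout: luminescence from CellTiter-Glo after 30 min in the dark at RT. Cells: DT40 Tdp1-/- with stable hTDP1, 400/well. Exposure: compounds alone, ≥48 hr, 37 °C.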
DT40 TDP1 CPT: DT40-hTDP1 cell growth loss with CPT; AID 686979; 420,000 compounds, 12% hits; Potency, µM (doses to about 46.2 µM), without a hit: at the top dose activity change, negative = growth inhibition, hits mostly inhibitors; chicken DT40 Tdp1-/-;hTDP1 cells + 20 nM CPT, ATP luminescence, 48 h; note: potency is the fitted concentration of half-maximal effect; % is set by controls: 0 for no effect and ±100 for the full control effect; nearly all actives have a fitted effect of over 55% in size
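Cell growth measured by CellTiter-Glo luminescence after a minimum 48 h, 37 C compound exposure with 20 nM CPT in Tdp1-knockout DT40 cells stably expressing hTDP1, seeded 400/well; qHTS titration format.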
miR-21 FLuc: miR-21 reporter, rising signal; HeLa miR-21 FLuc reporter, luciferase, 48 h; Potency, µM (titrated, usually from 38.3 µM), without a hit: top-dose reporter change, positive = more light; AID 2288; 340,000 tested, under 10 active; active = well fitted rising curve with a large enough effect; inconclusive = small, poorly fitted or top-dose-only effect; inactive = no such curve, though single readings can be large or run the other way;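 further: % of control where 0% means no effect; miR-21 action dims this reporter so a rising signal means less miR-21 action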
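HeLa miR-21-FLuc reporter line, endogenous miR-21; 2000 cells/well in DMEM/10% FBS; compound titration up to ~40uM final, 48 h, 37 degree Celsius; luciferase detection reagent, 15 min lysis, CCD luminescence.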
TDP1 block: TDP1 (human) enzyme inhibition; recombinant TDP1, AlphaScreen DNA substrate cleavage; Potency, µM (highest dose often 130 µM), without a hit: at the highest dose activity change, negative = inhibition, usual class: inhibitors; 350,000 compounds, 0.28% hits; note: potency is the fitted concentration of half-maximal effect; % is set by controls: 0 for no effect and ±100 for the full control effect; nearly all actives have a fitted effect of over 40% in size
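Recombinant human Tdp1 (E. coli-expressed, 1 nM final) preincubated with compounds 15 min at room temperature, then 5'-biotin/3'-phosphotyrosine-FITC DNA substrate (15 nM final) added for 5 min. AlphaScreen beads (10 ug/ml final) added 10 min; cleavage lowers signal.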
uPA generation: inhibitors of cell surface uPA generation; Potency, µM (highest dose often 38.3 µM), for inactives: at the highest dose activity change, negative = inhibition, actives largely listed as inhibitors; cell surface uPA generation assay, qHTS; 330,000 compounds, 0.31% hits; active = well fitted inhibition curve with a large enough effect; inconclusive = small, poorly fitted or top-dose-only effect; inactive = no such curve, though single readings can be large or run the other way; tested in mouse RAW 264.7 cells; note: potency is the fitted concentration of half-maximal effect; % is set by controls: 0 for no effect and ±100 for the full control effect; nearly all actives have a fitted effect of over 55% in size
An asterisk follows results filed as active; u = inconclusive; x = no result given; [ ] = another dose, or the depositor's remark. Rows were chosen to be rich in hits. Some 16% of all compounds tested hit in one or more screens of this group. Unless noted, calls come from the whole dose curve; as a rule, active = well fitted curve in the direction sought with a large enough effect; inconclusive = small, poorly fitted or top-dose-only effect, or another doubt; inactive = no such curve, though single readings can be large; an effect the other way counts as inactive or inconclusive.

Under each structure: DT40 TDP1 no CPT | DT40 TDP1 CPT | miR-21 FLuc | TDP1 block | uPA generation
> CSCCC(NS(=O)(=O)c1ccc(C)cc1)C(=O)N1CCCCCCC1 (stereo not drawn)
  16.4µM* | u | x | 2.3% | -3.3%
> COc1ccccc1Nc1ccc(NS(=O)(=O)c2ccc(C(C)=O)cc2)cc1
  16.4µM* | -18.6% | -4.6% | x | 2.9%
> CCOc1ccc(S(=O)(=O)Nc2cccc(C(=O)N3CCN(c4cccc(OC)c4)CC3)c2)cc1
  18.4µM* | 23.1µM* | x | -2.2% | -3.4%
> CSCCC(NS(=O)(=O)c1ccc(Cl)cc1)C(=O)OCc1cccc(Cl)c1 (stereo not drawn)
  u | u | -8.9% | 1.2% | 2.8%
> CSCCC(NS(=O)(=O)c1ccc(Cl)cc1)C(=O)OCc1c(Cl)cccc1Cl (stereo not drawn)
  20.6µM* | u | 0.5% | 2.8% | 7.7%
> CSCCC(NS(=O)(=O)c1ccccc1F)C(=O)N1CCCCCC1 (stereo not drawn)
  14.2% | -15.6% | 1.9% | x | 2.7%
> CC1CCN(C(=O)/C(=C\c2cccs2)NC(=O)c2ccccc2)CC1
  u | -1.4% | -30.8% | 11.1% | x
> O=C(Nc1ccnn1C1CCN(C/C=C/c2ccccc2)CC1)c1ccccc1
  6.7% | 15.4% | -2.1% | 3.6%[56.1 µM] | -7.5%
> O=C(c1ccccc1)N1CCN(CCc2ccncc2)CC1
  -4.5% | -16.6% | 0.7% | 0.5% | x
> COc1ccc(NS(=O)(=O)c2ccc(C(=O)N3CCCCCC3)cc2)cc1
  8.2µM* | 10.3µM* | x | 0.4% | -11.0%
> CSCCC(NS(=O)(=O)c1ccc2c(c1)oc(=O)n2C)C(=O)N1CCN(c2cc(Cl)ccc2C)CC1 (stereo not drawn)
  14.6µM* | u | 9.9% | 2.8% | x
> COc1ccc(NS(=O)(=O)c2cccc(C(=O)N3CCCCCC3)c2)cc1
  -20.2% | -19.6% | x | 0.5% | -6.0%
> CCOc1ccc(S(=O)(=O)Nc2ccc(C(=O)N(C)CC(=O)Nc3ccc(OC)cc3)cc2)cc1
  -24.6% | u | x | x | -0.7%
> CCOc1ccc(NS(=O)(=O)c2ccc(C(=O)N(C)CC(=O)Nc3cccc(OC)c3)cc2)cc1
  16.4µM* | 18.4µM* | x | x | u
> O=S(=O)(Nc1c(O)ccc2ccccc12)c1ccccc1
  16.4µM* | u | x | x | u
> COc1ccc(OC)c(-n2cnc3cc(C(=O)NC4CCCC4)ccc32)c1
  u | -8.0% | -14.7% | -0.9% | x
> CCOc1ccc(S(=O)(=O)Nc2cc(NS(=O)(=O)c3ccc(OCC)cc3)cc(C(=O)O)c2)cc1
  8.7% | 16.8% | x | 3.55µM* | 0.2%
> COc1ccc(S(=O)(=O)Nc2ccc(O)c3ccccc23)cc1
  4.61µM* | 3.26µM* | 17.1% | 4.1% | -10.1%
> COc1ccc(S(=O)(=O)Nc2ccccc2C(F)(F)F)cc1
  u | 1.8% | -3.4% | 6.5% | x
> COc1ccc(NS(=O)(=O)c2ccc(C(=O)N3CCN(Cc4ccccc4)CC3)cc2)cc1
  u | 11.6µM* | 23.4% | 5.8% | -28.7%
> COc1ccc(S(=O)(=O)NCc2ccc(C(=O)N3CCN(Cc4ccccc4)CC3)cc2)cc1
  -25.2% | u | 13.8% | 1.7% | -7.9%
> O=C(Nc1ccccc1)Nc1ccc(C(=O)N2CCCC2)cc1
  11.6µM* | 20.6µM* | -1.2% | 2.6% | -12.6%
> CCOC(=O)C1(C)C=C(Nc2ccccc2)C(=O)N1c1ccccc1 (stereo not drawn)
  u | u | -1.2% | 2.8% | -2.2%
> CCN(CC)S(=O)(=O)c1ccc(NC(=O)C2CC(=O)N(c3ccc4c(c3)OCCO4)C2)cc1 (stereo not drawn)
  -27.5% | -28.8% | x | x | 0.7%
> Clc1ccc(Nc2ccc(NCc3ccccc3)nn2)cc1
  u | -10.9% | -34.9% | 8.3% | -0.1%
> Cn1c(N)c(C(=O)COC(=O)C2(c3ccc(F)cc3)CCCC2)c(=O)n(C)c1=O
  18.4µM* | u | -7.9% | 1.1% | -6.7%
> Cn1c(N)c(C(=O)COC(=O)C2(c3ccccc3F)CCCC2)c(=O)n(C)c1=O
  u | u | 8.7% | -2.0% | 3.9%
> CC(C)[C@H](NS(=O)(=O)c1ccc(Cl)cc1)C(=O)OCC(=O)c1c(N)n(C)c(=O)n(C)c1=O
  20.6µM* | u | x | 2.3% | 16.4%
> Cn1c(N)c(C(=O)COC(=O)C2(c3ccc(Cl)cc3)CCCC2)c(=O)n(C)c1=O
  11.6µM* | 14.6µM* | 7.6% | 3.9% | 6.9%
> Cn1c(N)c(C(=O)COC(=O)/C=C/c2ccc(Cl)cc2Cl)c(=O)n(C)c1=O
  16.4µM* | u | x | 0.3% | -6.4%
> COc1cc2nc(CSc3nc(-c4ccc(F)cc4)cs3)[nH]c(=O)c2cc1OC
  u | 14.6µM* | -0.5% | 3.0% | -0.2%
> COC(=O)c1ccc(/C=N/NC(=S)NC(C)C)cc1
  u | u | -8.6% | x | 0.7%
> O=C(O)C1CCCN1S(=O)(=O)c1ccc2ccccc2c1 (stereo not drawn)
  4.0% | -14.3% | -3.0% | 0.0% | -2.1%
> NCC/C=C1/c2ccccc2CSc2ccccc21
  35.5µM* | 25.1µM* | 18.5% | 8.8%[56.1 µM] | 2.4%
> Ic1ccc(N2CCN(Cc3c[nH]c4ncccc34)CC2)cc1
  3.26µM* | 11.2µM* | x | -10.7%[56.1 µM] | -10.5%
> Oc1ccc(CN2CCN(c3ccccc3)CC2)c2cccnc12
  3.26µM* | 5.17µM* | 29.2% | 7.3% | -8.6%
> CCOC(=O)N1CCN(Cc2ccc(O)c3ncccc23)CC1
  0.651µM* | 0.581µM* | 28.8% | 5.1% | -2.5%
> Oc1ccc2ccccc2c1CN1CCN(c2ccccc2)CC1
  -20.0% | -3.1% | -3.5% | 4.5% | 3.5%
> Cc1ccc(C)c(S(=O)(=O)N2CCN(Cc3ccc(O)c4ncccc34)CC2)c1
  5.8µM* | 5.8µM* | 24.7% | 8.0% | -13.5%
> CC1(C(=O)NS(=O)(=O)c2cccs2)CCN1C(=O)Cc1ccccc1 (stereo not drawn)
  1.7% | -0.4% | x | x | x

Entries of single compounds as entered above. Values in the order: DT40 TDP1 no CPT, DT40 TDP1 CPT, miR-21 FLuc, TDP1 block, uPA generation
O=S(=O)(Nc1c(O)ccc2ccccc12)c1ccccc1 as listed: 16.4µM*, u, x, x, u
COc1ccc(NS(=O)(=O)c2ccc(C(=O)N3CCCCCC3)cc2)cc1 as listed: 8.2µM*, 10.3µM*, x, 0.4%, -11.0%
O=C(Nc1ccccc1)Nc1ccc(C(=O)N2CCCC2)cc1 as listed: 11.6µM*, 20.6µM*, -1.2%, 2.6%, -12.6%
O=C(Nc1ccnn1C1CCN(C/C=C/c2ccccc2)CC1)c1ccccc1 as listed: 6.7%, 15.4%, -2.1%, 3.6%[56.1 µM], -7.5%
Ic1ccc(N2CCN(Cc3c[nH]c4ncccc34)CC2)cc1 as listed: 3.26µM*, 11.2µM*, x, -10.7%[56.1 µM], -10.5%

Later entries.
Under each structure: DT40 TDP1 no CPT | DT40 TDP1 CPT | miR-21 FLuc | TDP1 block | uPA generation
> CCC(=O)N(CCC(c1ccccc1)c1ccco1)Cc1cccs1 (stereo not drawn)
  20.6µM* | 16.4µM* | 11.9% | 5.2% | -3.1%
> CCC(=O)N(CCC(Cc1ccccc1)c1ccc2c(c1)OCO2)Cc1ccccc1F (stereo not drawn)
  4.61µM* | 7.31µM* | 7.3% | 3.2% | 2.2%
> O=C(c1ccco1)N(CCC(c1ccccc1)c1ccco1)Cc1ccccc1 (stereo not drawn)
  u | u | -0.9% | 0.6% | -9.7%
> CCC(=O)N(CCC(Cc1ccccc1)c1ccco1)Cc1ccco1 (stereo not drawn)
  14.6µM* | 18.4µM* | 11.3% | -5.1% | -2.6%
> O=C(c1cc2c(=O)n3ccccc3nc2s1)N1CCc2ccccc2C1
  x | x | -30.0% | 2.7% | x
> COc1ccc(N2CCN(C(=O)CCNS(=O)(=O)c3ccc4c(c3)CCC(=O)N4)CC2)cc1
  u | -19.3% | -10.0% | -1.7% | x
